Experimental data taken from US9206463B2, “Method of testing a disinfectant or antibiotic using phenanthridium derivatives” (Montana State University, priority 2006, dated 2015).

Tested on: 8 bacterial species
Assay: genomic DNA yield of live and dead cells after PMA or EMA treatment, wider spectrum of bacterial species
Assay type: cell-based
Conditions: all species tested, 50 μM, 5 minutes

SMILES: CC[n+]1c(-c2ccccc2)c2cc(N=[N+]=[N-])ccc2c2ccc(N)cc21.[Br-] [EMA]
- DNA from dead cells after dye treatment: equally efficient in removing DNA from dead cells
